In patent publication EP2757379A1, “Method to screen for the teratogenic potential of substances” (priority 2013, dated 2014):
pIC50, pKd: −log10 of the molar value.

Amino acid sequences for entries named in this document (tags omitted).
UniProt A4TVL0, entry or part of it W36F/W59F: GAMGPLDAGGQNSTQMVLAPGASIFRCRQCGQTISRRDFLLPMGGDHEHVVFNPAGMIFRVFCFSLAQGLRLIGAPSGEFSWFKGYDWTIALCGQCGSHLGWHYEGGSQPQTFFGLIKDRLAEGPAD

Key:
[1] = target: T1, CRBN homologue mutant W36/59F from M. gryphiswaldense (Magnetospirillum gryphiswaldense, UniProt A4TVL0, W36F/W59F); experiment: biochemical; format: binding
T1 construct: His tag (vector pETHis_1a), TEV-cleavable (N, cleaved yes); made in house; host or cells: E. coli C41
Text: Depending on the binding affinity it appears useful to determine the optimal concentration range for the assay in advance. It is further recommended to test for a possible quenching effect of the candidate substance on tryptophan fluorescence. This quenching of tryptophan fluorescence is still measurable at 440 nm and influences the intensity and reliability of the FRET signal when using MANT-uracil. For that reason we measured in parallel the emission at 440 nm for the following three reaction mixtures containing: • 1. CRBN homologue mutant W36/59F from M. gryphiswaldense (final 3µM) and several concentrations of candidate substance in assay buffer; • 2. several concentrations of candidate substance in assay buffer, • 3. CRBN homologue mutant W36/59F from M. gryphiswaldense (final 3µM), MANT-uracil (final 3 µM) and several concentrations of candidate substance in assay buffer.
As it is shown for uridine in Fig. 8, we titrated increasing concentrations of uridine in 100 µl of a 3 µM protein solution in assay buffer and the according references as described above (example 5). The measurements were performed as described.

[2] = target: W36/59F mutant of the cereblon homologue from M. gryphiswaldense (Magnetospirillum gryphiswaldense, UniProt A4TVL0, W36F/W59F); experiment: biochemical

**Q.** With `O=C1CCC(N2C(=O)c3ccccc3C2=O)C(=O)N1` (stereo not drawn) [thalidomide, α-phthalimido glutarimide] as the molecule, how does the pKd [1] read?
**A.** 5.24

**Q.** And the pIC50 [2]?
**A.** 5.42
